Nrf2 activator: activators of Nrf2 (ARE) signaling; AID 624171; AREc32 ARE-luciferase reporter (MCF7-derived line), luminescence, 24 h; hit rate 0.31% among 410,000; Potency, µM (highest dose often 46.1 µM), hits mostly activators; note: nearly all actives have a fitted effect of over 65% in size
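Steps: seed AREc32_Fluc cells (1000/well, 5% FBS OPTI-MEM); incubate overnight at 37 deg C; add 23 nL compound; incubate 24 hr; add Steady-Glo; hold 30 min RT; read luminescence.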
miR-21 FLuc: miR-21 reporter, rising signal. HeLa miR-21 FLuc reporter, luciferase, 48 h. Potency, µM (titrated, usually from 38.3 µM). 340,000 tested, under 10 active. AID 2288; active = well fitted rising curve with a large enough effect; inconclusive = small, poorly fitted or top-dose-only effect; inactive = no such curve, though single readings can be large or run the other way;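 also: miR-21 action dims this reporter so a rising signal means less miR-21 action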
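Compounds were titrated across several concentrations (up to approximately 40 uM) and incubated 48 hours with HeLa miR-21-FLuc reporter cells (miR-21 target sequence downstream of FLuc, endogenous miR-21). Readout was firefly luciferase luminescence after lytic detection reagent.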
A549 viability: kills or reduces viability of A549 cells in Nrf2 counter-screen; hit rate 0.16% among 390,000; A549 ARE-Fluc cells, CellTiter-Fluor viability, 18-24 h; Potency, µM (titrated, usually from 46 µM), hits mostly inhibitors; AID 504648
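A549 ARE-Fluc cells in 5% FBS OPTI-MEM, 5000 cells/well, rested 2 h then exposed to compounds in concentration-response for 18-24 h at 37 °C. Viability by CellTiter-Fluor fluorescence (Ex 405/Em 525) after 30 min; luciferase luminescence (BugLite, 15 min, RT) read afterwards.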
Nrf2 inh: blocks Nrf2 signaling. A549 ARE-Fluc reporter, luciferase luminescence, 18-24 h. Potency, µM (doses to about 46 µM), most hits filed as inhibitors. hit rate 2.1% among 360,000; note: nearly all actives have a fitted effect of over 60% in size
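Two sequential reads on A549 ARE_Fluc cells exposed to compound for 18-24 h: a CellTiter-Fluor fluorescence read for viability, then a luciferase luminescence read for Nrf2/ARE activity.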
ClpP mod: qHTS Assay for Activators of ClpP; purified B. subtilis ClpP, FRET peptide cleavage, 20 min; ATP-dependent Clp protease proteolytic subunit (Bacillus subtilis (strain 168)), P80244; hit rate 1.9% among 340,000; Potency, µM (top dose mostly 57.5 µM); active = well fitted falling curve with a large enough effect; inconclusive = small, poorly fitted or top-dose-only effect; inactive = no such curve, though single readings can be large or run the other way; note: the source files actives as falling curves though it sought activators and does not explain the sign; nearly all actives have a fitted effect of over 65% in size
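Buffer: 100 mM Tris/HCl pH8, 100 mM KCl, 0.05% low protease BSA, 2.5% glycerol, 0.01% Tween-20. ClpP 10 microg/mL final; 20 min RT; delta FRET normalized to ADEP and DMSO controls.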
p53 reactivator: re-activators of mutant p53; H1299 p53-A138V BP100-luciferase reporter, luminescence, 24 h; Potency, µM (doses to about 92.2 µM), actives largely listed as activators; hit rate 0.063% among 320,000; AID 504706; note: nearly all actives have a fitted effect of over 45% in size
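H1299 (p53-null), stable ts p53-A138V + BP100-Luc; 1000 cells/well, Opti-MEM/10% FBS; cpd 4 pt, 1:5; 24 h, 37 deg C, 5% CO2; detection reagent 10 min RT; luminescence.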
Numbers stand for hits; n = inactive; u = inconclusive; x = no result. Compounds with a hit are over-represented: about 3.7% of the library has one in this group of screens. Unless noted, calls come from the whole dose curve; as a rule, active = well fitted curve in the direction sought with a large enough effect; inconclusive = small, poorly fitted or top-dose-only effect, or another doubt; inactive = no such curve, though single readings can be large; an effect the other way counts as inactive or inconclusive.

SMILES	Nrf2 activator	miR-21 FLuc	A549 viability	Nrf2 inh	ClpP mod	p53 reactivator
CC(C)Cn1c(N)c(C(=O)COC(=O)c2ccccc2Cl)c(=O)n(C)c1=O	n	n	n	n	n	n
Cn1c(N)c(C(=O)COC(=O)c2cc(-c3ccco3)nc3ccccc23)c(=O)n(Cc2ccccc2)c1=O	x	n	x	x	x	n
Cn1c(N)c(C(=O)COC(=O)c2cc(C(F)(F)F)nc3ccccc23)c(=O)n(Cc2ccccc2)c1=O	n	n	n	20.6µM	n	n
CC(C)Cn1c(N)c(C(=O)COC(=O)c2ccccc2C(=O)c2ccccc2)c(=O)n(C)c1=O	n	x	n	13µM	n	n
CC(C)Cn1c(N)c(C(=O)COC(=O)c2c(F)cccc2F)c(=O)n(C)c1=O	n	n	n	n	n	n
COCc1c(C(=O)OCC(=O)c2c(N)n(CC(C)C)c(=O)n(C)c2=O)oc2ccccc12	n	n	n	20.6µM	n	n
COc1ccc(-c2nc(C)c(CCNC(=O)c3cccs3)s2)cc1	n	n	n	x	n	x
CC(C)Cn1c(N)c(C(=O)COC(=O)c2ccc3c(c2)OCCO3)c(=O)n(C)c1=O	n	n	n	10.3µM	n	n
O=C(Nc1ccccc1)N1N=C(c2cccs2)CC1c1cccs1 (stereo not given)	n	n	n	23.1µM	31.6µM	n
O=c1c2c(-c3ccc(Cl)cc3)ccnc2[nH]n1-c1ccccc1	n	n	n	n	n	x
O=C1C=C(Nc2ccccc2)c2ccccc2C1=O	n	n	u	20.6µM	x	n
COc1ccc(CN(Cc2ccccc2)C(=O)C2CC2)cc1COc1ccc(NC(C)=O)cc1	x	x	n	20.6µM	n	x
COc1ccc(CN(Cc2ccccc2)C(C)=O)cc1COc1ccc(NC(C)=O)cc1	x	x	n	n	n	x
Cc1ccc2c(C)c(C(=O)N3CCC(c4nc5ccccc5s4)CC3)oc2c1C	n	n	n	n	n	x
O=S(=O)(c1ccc(NC(=S)N/N=C/c2ccc(Oc3ccccc3)cc2)cc1)N1CCOCC1	n	n	n	n	x	n
Cc1ccccc1C(=O)NC(=S)Nc1ccc(S(=O)(=O)N2CCOCC2)cc1	n	n	n	13µM	n	n
O=S(=O)(c1ccc(NC(=S)N/N=C/c2c3ccccc3cc3ccccc23)cc1)N1CCOCC1	n	u	n	9.2µM	n	n
CCCn1c(CCC(=O)Nc2cc(C(=O)OC)cc(C(=O)OC)c2)nc2cccnc21	n	n	n	n	n	x
COc1ccc2c(c1OC)C(=O)OC2Nc1nc(-c2ccc(-c3ccccc3)cc2)cs1 (stereo not given)	n	n	n	u	15.8µM	u
CCc1ccccc1NC(=O)C1CCCN(C(=O)c2cnn(-c3ccccc3)c2-n2cccc2)C1 (stereo not given)	n	n	n	n	n	x
CCOC(=O)c1ccc(NC(=O)c2cc3cc(C)ccc3n2C)cc1	n	n	n	n	n	x
CC(C)C(=O)Nc1cccc(C(=O)OCC(=O)c2ccc(Cl)cc2Cl)c1	n	n	u	20.6µM	n	n
COC(=O)c1cccc(NC(=O)Nc2ccc(Cl)cc2Cl)c1	n	n	n	n	n	n
CCOC(=O)c1c(C)[nH]c(C(=O)OC(C)C(=O)Nc2ccc(C)cc2)c1C (stereo not given)	n	x	x	x	n	x
CCOC(=O)c1c(C)[nH]c(C(=O)OC(C)C(=O)Nc2ccccc2OC)c1C (stereo not given)	n	n	n	14.6µM	n	n
SMILES	Nrf2 activator	miR-21 FLuc	A549 viability	Nrf2 inh	ClpP mod	p53 reactivator
CCOC(=O)c1c(C)[nH]c(C(=O)Nc2ccc(NC(C)=O)cc2)c1C	n	n	n	8.2µM	n	n
O=C(Nc1cccc(Cl)c1)C(Cc1ccccc1)n1cccc1 (stereo not given)	n	n	n	u	n	x
CCc1cccc(NC(=O)C(Cc2ccccc2)n2cccc2)c1 (stereo not given)	n	n	n	20.6µM	n	x
Cc1ccc2cccc(NC(=O)c3ccc(-c4cccc(Cl)c4)o3)c2n1	n	n	n	n	n	x
CCCNC(=O)c1ccc(-n2c(-c3ccccc3)cc3c2CCC(C)C3)cc1 (stereo not given)	11.2µM	u	n	u	u	x
CN(C)CCNC(=O)c1ccc(-n2c(-c3ccccc3)cc3c2CCCCC3)cc1	u	n	n	u	n	x
COCCNC(=O)c1ccc(-n2c(-c3ccccc3)cc3c2CCC(C)C3)cc1 (stereo not given)	10µM	n	n	n	n	x
CCCCNC(=O)CN1C(=O)c2cccnc2Sc2ccccc21	n	n	n	u	n	x
COC(=O)c1cc2c(ccn2-c2ccc(F)cc2)n1Cc1cccc(OC)c1	n	n	n	n	28.2µM	n
COC(=O)c1cc2c(ccn2-c2ccc(F)cc2)n1Cc1ccc(OC(C)=O)cc1	n	n	n	n	28.2µM	u
COC(=O)c1cc2c(ccn2-c2ccc(F)cc2)n1C(C)C	n	n	n	n	u	n
CC(C)CCn1c(=O)c2sccc2n2c(CCCC(=O)NCc3ccc(F)cc3)nnc12	n	n	n	n	n	x
COc1cc(F)c(S(=O)(=O)N2CCCN(S(=O)(=O)c3ccc(NC(C)=O)cc3)CC2)c(F)c1	x	x	n	u	x	x
CCN(CC)S(=O)(=O)c1cc(-c2nnc(Nc3ccc(OC)c(C(N)=O)c3)c3ccccc23)ccc1C	n	n	u	u	n	x
CCCCC(O)C(=O)Nc1cc(C(F)(F)F)ccc1Cl (stereo not given)	x	x	n	n	x	x
O=c1c2[nH]c3ccc(F)cc3c2ncn1CCCN1CCOCC1	n	n	n	n	20µM	n
Cc1ccc(-n2nc(C(=O)N3CCN(c4cccc(C(F)(F)F)c4)CC3)c3c4ccccc4n(C)c3c2=O)cc1	n	n	n	n	n	x
C/C(=N\NC(=S)NC1CCCCC1)c1ccc(OC(F)F)cc1OC(F)F	n	n	n	20.6µM	x	n
CCOC(=O)C(=Cc1cc(=O)c(OC)co1)C(=O)OCC	n	u	14.6µM	9.2µM	n	n
CCOc1cc2[nH]c(=O)n(Cc3ccc(C(=O)N4CCN(c5cccc(Cl)c5)CC4)cc3)c(=O)c2cc1OCC	n	n	n	x	n	x
Cc1c(-c2ccccc2)[n+](=O)c(-c2ccco2)c(C)n1[O-]	n	n	n	n	28.2µM	n
Cc1cc(C(=O)CN2CCC(C)CC2)c(C)n1-c1ccc(F)cc1	n	n	n	n	n	u
Cc1cc(C(=O)CN2CCCCC2)c(C)n1-c1ccc(F)cc1	n	n	n	n	25.1µM	u
COc1ccccc1N1CCN(S(=O)(=O)c2ccc3nc(-c4ccccc4)[nH]c3c2)CC1	n	n	n	23.1µM	n	n

Bioassay records: PubChem, National Center for Advancing Translational Sciences (NCATS)
